{"sequences": {"note": "The chains behind the UniProt entries cited, without tags or fusion partners. Where a name states a change or a piece, a line headed by the entry shows the natural chain unless it says otherwise. Residues count along the entry.", "UniProt P28472, 26-473": "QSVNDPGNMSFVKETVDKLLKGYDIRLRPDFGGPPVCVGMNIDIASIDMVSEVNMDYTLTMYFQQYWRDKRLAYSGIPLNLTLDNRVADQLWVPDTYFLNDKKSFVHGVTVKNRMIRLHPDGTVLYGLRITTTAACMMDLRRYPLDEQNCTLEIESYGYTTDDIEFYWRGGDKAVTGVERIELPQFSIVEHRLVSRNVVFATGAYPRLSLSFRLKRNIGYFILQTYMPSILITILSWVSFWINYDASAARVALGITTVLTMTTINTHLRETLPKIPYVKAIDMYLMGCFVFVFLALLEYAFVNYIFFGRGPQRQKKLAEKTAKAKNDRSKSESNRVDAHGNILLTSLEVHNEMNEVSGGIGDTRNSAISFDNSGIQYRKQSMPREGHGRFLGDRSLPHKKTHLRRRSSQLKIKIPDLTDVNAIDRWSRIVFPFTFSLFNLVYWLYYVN", "UniProt P48169, 36-554": "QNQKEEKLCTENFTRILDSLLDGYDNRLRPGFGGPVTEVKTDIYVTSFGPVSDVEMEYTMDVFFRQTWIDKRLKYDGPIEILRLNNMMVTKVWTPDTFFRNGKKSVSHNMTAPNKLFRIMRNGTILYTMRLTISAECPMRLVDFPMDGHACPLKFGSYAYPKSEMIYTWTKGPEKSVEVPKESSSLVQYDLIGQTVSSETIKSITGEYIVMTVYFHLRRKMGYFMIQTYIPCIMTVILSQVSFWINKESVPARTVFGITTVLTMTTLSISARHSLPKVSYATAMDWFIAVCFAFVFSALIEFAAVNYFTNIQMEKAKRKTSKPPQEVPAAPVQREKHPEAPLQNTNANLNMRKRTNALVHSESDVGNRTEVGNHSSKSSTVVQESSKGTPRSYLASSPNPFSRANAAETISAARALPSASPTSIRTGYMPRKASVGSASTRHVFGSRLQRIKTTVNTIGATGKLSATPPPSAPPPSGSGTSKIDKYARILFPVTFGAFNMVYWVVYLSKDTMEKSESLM", "UniProt P14867, 28-456": "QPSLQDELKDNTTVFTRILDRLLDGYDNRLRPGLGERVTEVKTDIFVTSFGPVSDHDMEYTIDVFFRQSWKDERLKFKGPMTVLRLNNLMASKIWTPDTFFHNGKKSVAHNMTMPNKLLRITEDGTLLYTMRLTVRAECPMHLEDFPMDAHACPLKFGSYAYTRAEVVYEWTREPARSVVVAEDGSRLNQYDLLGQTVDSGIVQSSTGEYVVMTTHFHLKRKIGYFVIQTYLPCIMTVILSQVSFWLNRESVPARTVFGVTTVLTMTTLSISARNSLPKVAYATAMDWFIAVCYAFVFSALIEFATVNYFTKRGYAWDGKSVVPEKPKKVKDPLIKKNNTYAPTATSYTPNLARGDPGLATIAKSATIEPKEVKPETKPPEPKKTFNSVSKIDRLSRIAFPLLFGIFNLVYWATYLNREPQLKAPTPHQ", "UniProt P47870, 25-512 limits assumed": "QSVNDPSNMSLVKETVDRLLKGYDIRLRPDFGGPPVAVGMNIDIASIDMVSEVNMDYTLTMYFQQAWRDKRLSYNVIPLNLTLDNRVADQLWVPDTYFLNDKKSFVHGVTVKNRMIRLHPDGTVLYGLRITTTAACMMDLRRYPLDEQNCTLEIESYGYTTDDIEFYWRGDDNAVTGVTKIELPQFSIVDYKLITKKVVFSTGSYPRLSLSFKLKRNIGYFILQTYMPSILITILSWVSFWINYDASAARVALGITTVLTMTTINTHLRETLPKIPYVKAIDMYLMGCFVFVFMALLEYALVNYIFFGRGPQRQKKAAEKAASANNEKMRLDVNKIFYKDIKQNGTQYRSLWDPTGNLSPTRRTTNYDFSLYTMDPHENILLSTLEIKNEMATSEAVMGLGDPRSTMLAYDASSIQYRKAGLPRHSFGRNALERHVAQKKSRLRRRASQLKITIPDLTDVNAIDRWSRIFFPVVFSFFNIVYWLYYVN"}, "source": "patent US20260285897A1", "about": "“Neurosteroids and Prodrugs Thereof” (Emory University, priority 2023, published 2026)", "key": {"GABAA α4β3δ": {"biological_target": "GABAA α4β3δ (Homo sapiens, UniProt P28472+P48169)", "assay": "GABAA electrophysiology, PAM mode, SyncroPatch automated patch clamp", "type": "cell-based", "procedure": "(§1) The SyncroPatch assay is performed at room temperature. A fast application protocol is used, in which the ligand is rapidly applied and then removed from the cell. To test for PAM mode, the agonist (GABA EC20) is applied three times as a control and to show reproducibility, followed by a minimum 2-minute pre-incubation of client compound and then re-application of agonist (GABA EC20) in the presence of client compound. Finally, a saturating concentration of agonist is applied. A steady-state voltage pulse at −80 mV is applied throughout the assay. Compounds are prepared as 10 mM DMSO stocks.\n(§2) Automated patch clamp-recordings are performed using the SyncroPatch 384i. The voltage protocol generation and data collection are performed with Patch Controller 384 V2.2.1 and Data Controller V2.3.0. The PAM activity is calculated using the following equation, [(Icomp/Ireference)−1], where Icomp is the current amplitude in the presence of the compound and Ireference is the current amplitude in the presence of GABA alone. This builds an activation concentration-response curve (CRC), where <0.2 represents no PAM activity and >0.2 represents PAM activity. If a “bell-shape curve” is observed at the higher concentrations, showing a reduction in activity in comparison to previous concentrations, then to allow for a more accurate curve fit, these concentrations are removed from the graphs where necessary and noted in the results table."}, "GABAA α1β2γ2": {"biological_target": "GABAA α1β2γ2 (Homo sapiens, UniProt P14867+P47870)", "assay": "GABAA electrophysiology, PAM mode, SyncroPatch automated patch clamp", "type": "cell-based", "details": "read-out: GABAA α1β2γ2 Maximum Potentiation", "procedure": "as §1, §2"}}, "data": [{"smiles": "CC(=O)[C@H]1CC[C@H]2[C@@H]3CC[C@H]4C[C@](C)(O)CC[C@]4(C)[C@H]3CC[C@]12C", "note": "[Ganaxalone, Ganaxolone, reference compound]", "values": [{"measurement": "Emax", "setting": "GABAA α4β3δ; read-out: GABAA α4β3δ Maximum Potentiation", "value": 165, "unit": "%"}, {"measurement": "selectivity for GABAA receptor containing the delta (δ) subunit compared to a GABAA receptor without it", "setting": "GABAA α4β3δ; α4β3δ vs α1β2γ2, in words", "value": "not observed"}, {"measurement": "Emax", "setting": "GABAA α1β2γ2", "value": 252, "unit": "%"}]}]}
